{"sequences": {"note": "By UniProt entry, the sequences of proteins in these tests, tags left out. Where a name states a change or a piece, a line headed by the entry shows the natural chain unless it says otherwise.", "UniProt Q14542": "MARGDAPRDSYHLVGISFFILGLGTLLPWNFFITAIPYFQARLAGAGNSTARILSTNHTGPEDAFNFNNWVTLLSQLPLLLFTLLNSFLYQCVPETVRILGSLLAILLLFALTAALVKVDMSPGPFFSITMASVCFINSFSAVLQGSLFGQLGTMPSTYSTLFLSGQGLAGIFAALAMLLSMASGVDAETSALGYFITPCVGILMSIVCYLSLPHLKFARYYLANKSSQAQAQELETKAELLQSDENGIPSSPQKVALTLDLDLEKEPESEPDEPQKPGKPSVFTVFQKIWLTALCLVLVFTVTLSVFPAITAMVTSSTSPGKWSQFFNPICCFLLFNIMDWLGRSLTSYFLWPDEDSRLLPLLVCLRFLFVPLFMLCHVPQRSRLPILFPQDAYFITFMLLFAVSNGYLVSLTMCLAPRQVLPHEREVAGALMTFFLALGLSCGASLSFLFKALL"}, "source": "patent US6423829B1", "about": "(St. Jude Children's Research Hosital, priority 1997, dated 2002)", "origin": "cited, not measured here", "molecular_target": "ei transporter (Homo sapiens, UniProt Q14542)", "settings": "high concentrations; cited from earlier work"}
{"molecule": "O=[N+]([O-])c1ccc(CSc2ncnc3c2ncn3C2OC(CO)C(O)C2O)cc1", "note": "[NBMPR, 6-[(4-nitrobenzyl)thio-9-β-D-ribofuranosylpurine]]", "values": [{"measurement": "concentration at which the ei transporter is also inhibited", "result": "> 1", "unit": "µM"}]}
